Sequences of proteins named here, by UniProt entry; tags and fusion partners are left off. A change or cut given only in a name is not applied to a line headed by its entry.
UniProt P62993: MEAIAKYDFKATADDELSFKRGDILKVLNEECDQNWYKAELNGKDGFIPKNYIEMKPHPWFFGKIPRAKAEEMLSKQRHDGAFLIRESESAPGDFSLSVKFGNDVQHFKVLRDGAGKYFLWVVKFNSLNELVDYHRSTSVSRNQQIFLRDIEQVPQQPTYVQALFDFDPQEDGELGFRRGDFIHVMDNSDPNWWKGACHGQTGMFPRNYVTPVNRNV

According to patent US20240083974A1, “Artificial Transmembrane Proteins for Detecting Intracellular or Intravesicular Biomolecular Interactions” (published 2024):

What was measured:
[1] = target: eYFP receptor structure (Aequorea victoria, UniProt P42212, H231L/S65G/S72A/T203Y/V68L); test: Same measurement in control cells with artificial transmembrane protein containing eYFP as the receptor structure; details: living cells expressing the eYFP artificial transmembrane protein; signal remains constant at the baseline
[2] = target: Grb2 receptor structure (Grb2 SH3 domain) (Homo sapiens, UniProt P62993); test: Real-time label-free signal of living cells with artificial transmembrane protein containing Grb2 as the receptor structure, after peptide injection

KKWKMRRNPFWIKIQRC-CGIRVVDNSPPPPLPPRRRRSAPSPTRV-amide
binding to non-specific receptor structure eYFP [1]: does not bind
time the signal remains within the baseline after injection of the peptide (lag before response) ([2]; lag presumably time for the peptide to diffuse across the cell membrane and bind the Grb2 SH3 domain): about 20 minutes
binding to the Grb2 receptor structure inside living cells ([2]; living cells expressing the Grb2 artificial transmembrane protein, FIG. 4d, response increases): specifically binds
